Reference: published antibiotic growth screens (doi:10.1038/s41589-023-01349-8)
This is one part of the list.

test system: A. baumannii ATCC 17978; experiment: relative growth (fraction of control); higher = less inhibition; conditions: 50 µM

| Structure (SMILES) | relative growth |
| --- | --- |
| COc1cccc(S(=O)(=O)Nc2ccc3c(c2)OC[C@H](C)N(C(=O)Cc2cccnc2)C[C@@H](C)[C@@H](OC)CN(C)C3=O)c1 | 1.01 |
| O=C(CN1CCOCC1)N[C@H]1CC[C@H](CCn2cc(C3CC3)nn2)O[C@H]1CO | 1.19 |
| O=C(C[C@@H]1CC[C@H]2[C@@H](COC[C@H](O)CN2C(=O)c2ccccc2F)O1)N1CCN(c2ccccc2)CC1 | 1.02 |
| O=C(C[C@@H]1CC[C@@H](NC(=O)c2cnccn2)[C@@H](CO)O1)NCc1ccccc1F | 0.973 |
| COc1cccc(S(=O)(=O)N(C)C[C@H]2Oc3cc(C4=CCCC4)ccc3S(=O)(=O)N([C@H](C)CO)C[C@@H]2C)c1 | 1 |
| CN(C)CC(=O)N[C@H]1CC[C@@H](CCNC(=O)C2CC2)O[C@@H]1CO | 1.18 |
| CCCNC(=O)N1C[C@@H](O)COC[C@H]2O[C@H](CC(=O)N3CCN(C)CC3)CC[C@@H]21 | 0.966 |
| O=C(C[C@H]1CC=CC[C@H](NC(=O)OCC2c3ccccc3-c3ccccc32)C(=O)OCCNC1=O)NCCO | 1 |
| NS(=O)(=O)c1ncn(Cc2ccccc2)n1 | 0.805 |
| COc1ccccc1-c1ccc2c(c1)O[C@@H](CN(C)C(=O)c1cccnc1)[C@H](C)CN([C@@H](C)CO)S2(=O)=O | 0.967 |
| CCC(=O)Nc1ccc2c(c1)OC[C@H](C)N(C(=O)CN1CCOCC1)C[C@H](C)[C@@H](OC)CN(C)C2=O | 1.13 |
| COc1cc2c(cc1OC)CN(C(=O)[C@H]1[C@@H]3C(=O)O[C@@H](c4ccccc4)[C@@H](c4ccccc4)N3[C@@H](c3ccc(OCCO)cc3)[C@]13C(=O)Nc1ccc(C#CC4(O)CCCCCC4)cc13)CC2 | 1.34 |
| CO[C@@H]1[C@@H](OC(=O)c2ccc(C)[nH]2)[C@@H](O)[C@@H](Oc2ccc3c(c2C)OC(=O)[C@H](NC(=O)c2[nH]cc(CC(=O)Nc4cc5ccc(O[C@@H]6OC(C)(C)[C@H](OC)[C@@H](OC(=O)c7ccc(C)[nH]7)[C@H]6O)c(C)c5oc4=O)c2C)C3)CC1(C)C | 0.235 |
| O=c1cc(-c2ccccc2)[nH]c(=O)[nH]1 | 0.923 |
| CC(C)CSc1ncnc2scc(-c3ccccc3)c12 | 0.92 |
| Cc1ccc(S(=O)(=O)N2C[C@H](O)COC[C@H]3O[C@H](CC(=O)NCc4ccc5c(c4)OCO5)CC[C@@H]32)cc1 | 0.973 |
| O=C(CCCCCC(=O)N/N=C/[C@H](O)[C@@H](O)[C@H](O)CO)NO | 0.979 |
| CNCc1ccccc1.Cl | 1.09 |
| O=C(C[C@H]1CC[C@H]2[C@@H](COC[C@H](O)CN2S(=O)(=O)c2ccc(F)cc2)O1)N[C@H]1CCN(Cc2ccccc2)C1 | 1.09 |
| COCC#Cc1ccc2c(c1)O[C@H](CN(C)S(=O)(=O)c1cccc(OC)c1)[C@H](C)CN([C@H](C)CO)S2(=O)=O | 0.89 |
| CCCC1CCC(c2ccc(OC(=O)c3cccnc3)cc2)CC1 (configuration not stated) | 1.23 |
| CO[C@H]1CN(C)C(=O)c2cc(NC(=O)Nc3ccccc3F)ccc2OC[C@@H](C)N(Cc2ccccc2C(=O)O)C[C@H]1C | 0.993 |
| O=C(C[C@@H]1C=C[C@H](NS(=O)(=O)c2ccccc2)[C@@H](CO)O1)NCc1ccncn1 | 1.08 |
| CC(C)CC#Cc1ccc2c(c1)O[C@@H](CN(C)C(=O)NC1CCCC1)[C@@H](C)CN([C@H](C)CO)S2(=O)=O | 0.92 |

| Structure (SMILES) | relative growth |
| --- | --- |
| O=C(N[C@H]1CC[C@@H](CCn2cc(C3(O)CCCC3)nn2)O[C@@H]1CO)C1CCOCC1 | 0.978 |
| C=CC1=C(C)C2=NC/1=C\C1=NC(=C\C3=NC(=C\C4=NC(=C\2)/C(C)=C4CCC(=O)O)/C(CCC(=O)O)=C3C)/C(C=C)=C1C | 1.1 |
| O=C(N1CCOCC1)[C@@]1(CCS(=O)(=O)c2ccccc2)N=C(c2ccc(OCCCO)cc2)O[C@H]1c1ccccc1 | 0.753 |
| NCCCC[C@H](N[C@@H](CCc1ccccc1)C(=O)O)C(=O)N1CCC[C@H]1C(=O)O | 1.04 |
| COCC(=O)Nc1ccc2c(c1)C(=O)N(C)[C@H]1CC[C@@H](CC(=O)NCc3ccccc3Cl)O[C@@H]1CO2 | 1 |
| COCC(=O)Nc1ccc2c(c1)OC[C@H](C)N(Cc1ccccc1OC)C[C@@H](C)[C@H](OC)CN(C)C2=O | 0.843 |
| N[C@@H](CC(=O)O)c1cccc([N+](=O)[O-])c1 | 1.09 |
| CCN1C(=O)CS/C1=N\N1CCOCC1 | 0.997 |
| CCCC(=O)Nc1ccc2c(c1)C(=O)N(C)[C@@H]1CC[C@H](CC(=O)NCCN3CCCCC3)O[C@H]1CO2 | 1.07 |
| c1ccc(Nc2ncnc3sc(-c4ccccc4)cc23)cc1 | 0.939 |
| CO[C@@H]1CN(C)C(=O)c2cc(NS(=O)(=O)CC(F)(F)F)ccc2OC[C@H](C)N(Cc2cccnc2)C[C@H]1C | 1 |
| CC(C)(C)NC(=O)C[n+]1cccc(/C=N/O)c1 | 0.945 |
| CO[C@H]1CN(C)C(=O)c2ccc(NC(=O)C3CC3)cc2OC[C@@H](C)N(C(=O)C2CCOCC2)C[C@@H]1C | 0.971 |
| CO[C@@H]1CN(C)C(=O)c2cc(NC(=O)Nc3cccc(Cl)c3)ccc2OC[C@@H](C)N(C(=O)Nc2c(C)noc2C)C[C@@H]1C | 1.26 |
| C[C@H]1CN([C@@H](C)CO)S(=O)(=O)c2ccc(-c3ccc(C(=O)N(C)C)cc3)cc2O[C@H]1CN(C)C(=O)C1CCC1 | 0.918 |
| CN1C(=O)C[C@H](C(=O)O)[C@H]1c1cccnc1 | 1.1 |
| CCCNC(=O)N[C@@H]1C=C[C@@H](CC(=O)N2CCN(C)CC2)O[C@@H]1CO | 0.889 |
| O=C(C[C@@H]1C=C[C@H](NS(=O)(=O)c2ccc(F)cc2)[C@@H](CO)O1)NCc1ccc(Cl)c(Cl)c1 | 0.858 |
| C=CCC[C@@H](Cc1ccc(F)cc1)C(=O)OC[C@@H](Cc1c[nH]c2ccccc12)NC(=O)[C@H](CC=C)CC(=O)N(CCO)Cc1ccccc1 | 1.47 |
| CO[C@H]1CN(C)C(=O)c2cc(NC(=O)Nc3ccccc3F)ccc2OC[C@H](C)N(Cc2ccccc2C(=O)O)C[C@@H]1C | 1.08 |
| O=C(C[C@H]1CC[C@@H](NS(=O)(=O)c2ccccc2)[C@H](CO)O1)NCc1ccncn1 | 1.17 |
| COc1ccc(S(=O)(=O)N[C@H]2CC[C@H](CCNC(=O)CN3CCOCC3)O[C@H]2CO)cc1 | 1.05 |
| C[C@H](N)[C@H](O)c1cccc(O)c1.O=C(O)[C@H](O)[C@@H](O)C(=O)O | 1.01 |
